Assay results from article PMC12362587, “Untargeted Diversity-Oriented Synthesis for the Discovery of New Antitumor Agents: An Integrated Approach of Inverse Virtual Screening, Bioinformatics, and Omics for Target Deconvolution” (Journal of Medicinal Chemistry, 2025).

Key:
BRD4(BD1) = target: T1, BRD4(BD1) (Homo sapiens, UniProt O60885); experiment: BRD4 (BD1) Inhibitor Screening Assay Kit (AlphaScreen); assay type: binding; details: compound 10 μM, triplicate
T1 construct: purchased BPS Bioscience (printed as 'BSP') 32514
Protocol: The activity of synthesized compounds against BRD4 was measured by AlphaScreen assay using BRD4(BD1) Inhibitor Screening Assay Kit (BSP-32514) as reported before. ,
Compounds were first tested in triplicate at a concentration of 10 μM, using (+)-JQ1 as reference compound.
Briefly, compounds 31, 63, or (+)-JQ1 (as reference compound) or DMSO (2%) were preincubated with BRD4(BD1) protein and histone H4(1–21)-K5/8/12/16Ac-BiotinOH at room temperature for 30 min. After that, 10 μL of acceptor and donor beads (250-fold diluted) were added, protecting them from light. The results were measured 60 min later using the Enspire microplate analyzer (PerkinElmer, California, USA). Each compound was tested in triplicate, and GraphPad Prism (version 8.0) was used to analyze the data, employing the equation log(inhibitor) vs normalized response-variable slope

[1] = target: histone H4(1-21)K5/8/12/16Ac-BiotinOH (UniProt P62805); experiment: AlphaScreen or HTRF; as a1, with compound 63 at 10 uM, in triplicate; residual binding in percent
[2] = target: histone H4(1-21)K5/8/12/16Ac-BiotinOH (UniProt P62805); experiment: AlphaScreen or HTRF; as a1, with compound 31 at 10 uM, in triplicate; residual binding in percent

residual BRD4 binding to acetylated H4 (BRD4(BD1)) [%] | residual binding with 10 uM compound 63 [1] [%] | residual binding with 10 uM compound 31 [2] [%] | Compound
24.17 ± 0.03 | – | – | CC(C)C[C@H]1C(=O)N(Cc2ccc(C(F)(F)F)cc2)c2ccccc2C(=O)N1Cc1ccc(C(F)(F)F)cc1 [Compound 31, (S)-3-Isobutyl-1,4-bis(4-(trifluoromethyl)benzyl)-3,4-dihydro-1H-benzo[e][1,4]diazepine-2,5-dione]
6.52 ± 2.96 | – | – | CC(C)C[C@@H](C(=O)OCc1ccccc1)N1Cc2ccccc2NC1=O [Compound 63, Benzyl (S)-4-Methyl-2-(2-oxo-1,4-dihydroquinazolin-3(2H)-yl)pentanoate]
– | 6.52 | 24.2 | Bromodomain-containing protein 4, first bromodomain, BRD4(BD1) (domain or fragment)
